Measured values taken from patent US20150173847A1, “IMAGING MARKER AND UTILIZATION THEREOF” (priority 2012, published 2015).

Legend:
[1] = T1 and T2 relaxivity measurement by spin echo MRI at varying concentrations; assay type: physicochemical; settings: aqueous solution, 22° C.
[2] = Density of the aqueous solutions calculated from the weight of 2 mL in a tube; assay type: physicochemical; settings: aqueous solution that exhibited maximum MRI contrast

Substance | r1 (T1 relaxivity) [1] [mM⁻¹ s⁻¹] | Density [2] [g/mL] | r1 (T1 relaxivity) ([1]; listed as LST) [mM⁻¹ s⁻¹]
Manganese dichloride [Mn (MnCl2)] | 5.5 | 1.0 | 
lithium heterotungstate [W (LST)] | 9.2e-05 | 2.9 | 9.2e-05
